Measured values: paper PMC7470027, “Synthesis and structure-activity relationships of novel 5-(hydroxamic acid)methyl oxazolidinone derivatives as 5-lipoxygenase inhibitors” (Journal of Enzyme Inhibition and Medicinal Chemistry, 2020)

Protein sequences, listed by entry. Tags and fused reporters are not part of them.
UniProt P09917, whole entry: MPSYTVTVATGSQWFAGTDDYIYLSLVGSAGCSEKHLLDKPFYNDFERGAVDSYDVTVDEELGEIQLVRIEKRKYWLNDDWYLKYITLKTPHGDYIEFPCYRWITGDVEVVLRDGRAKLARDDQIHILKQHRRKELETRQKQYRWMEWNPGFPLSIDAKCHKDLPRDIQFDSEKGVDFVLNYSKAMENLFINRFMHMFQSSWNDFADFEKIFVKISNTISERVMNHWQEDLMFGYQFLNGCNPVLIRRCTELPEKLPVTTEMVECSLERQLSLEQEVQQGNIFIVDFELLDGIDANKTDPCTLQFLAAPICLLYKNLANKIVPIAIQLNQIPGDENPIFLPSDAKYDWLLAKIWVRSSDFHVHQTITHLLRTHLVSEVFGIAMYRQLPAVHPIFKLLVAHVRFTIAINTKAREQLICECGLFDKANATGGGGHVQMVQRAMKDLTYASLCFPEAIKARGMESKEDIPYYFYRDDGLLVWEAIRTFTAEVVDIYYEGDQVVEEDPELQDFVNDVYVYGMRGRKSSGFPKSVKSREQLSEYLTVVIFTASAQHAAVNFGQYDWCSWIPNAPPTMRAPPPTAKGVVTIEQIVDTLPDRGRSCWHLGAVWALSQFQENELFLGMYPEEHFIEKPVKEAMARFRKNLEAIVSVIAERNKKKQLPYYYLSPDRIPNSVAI

Columns and labels:
[1] = tested on: 5-LO product LTC4 from isolated human monocytes; test: Inhibition of 5-LO product LTC4 from isolated human monocytes (A23187); conditions: read-out: Human monocyte LTC4 IC50 (CI), calcium ionophore A23187, 95% confidence interval in brackets
[2] = tested on: 5-LO product LTC4 from allergen/IgE-activated bone marrow-derived mouse mast cells (BMMC); test: Inhibition of 5-LO product LTC4 from allergen/IgE-activated bone marrow-derived mouse mast cells (BMMC); conditions: read-out: Mouse mast cell LTC4 IC50 (CI); anti-DNP IgE/DNP-BSA-activated BMMC; 95% confidence interval in brackets
recombinant human 5-LO = recombinant human 5-LO (Homo sapiens, UniProt P09917); test: Direct inhibition of 5-LO activity in a cell-free assay (H2DCF-DA fluorescence); format: biochemical; conditions: read-out: Direct inhibition of 5-LO activity. IC50 (CI), 95% confidence interval in brackets
[3] = tested on: 5-LO-dependent generation of LTB4 from activated human whole blood; test: Inhibition of 5-LO product LTB4 from activated human whole blood (LPS/FMLP); conditions: read-out: Human whole blood LTB4 IC50 (CI); LPS-primed, FMLP-stimulated human whole blood; 95% confidence interval in brackets

Compound | IC50 [1] | IC50 [2] | IC50 (recombinant human 5-LO) | IC50 [3]
O=C(ON(C[C@H]1CN(c2ccc(N3CCOCC3)c(F)c2)C(=O)O1)C(=O)C1CC1)C1CC1 | > 50 µM | – | – | –
CC(=O)N1CCN(c2ccc(N3CC(CN(O)C(=O)C(C)C)OC3=O)cc2F)CC1 (centres unmarked) | 32.7 µM | > 50 µM | 14.8 µM | –
CC(=O)N(O)CC1CN(c2ccc(N3CCN(C(C)=O)CC3)c(F)c2)C(=O)O1 (centres unmarked) | > 50 µM | > 50 µM | > 30 µM | 38 µM
CC(=O)N1CCN(c2ccc(N3CC(CN(OC(=O)C4CC4)C(=O)C4CC4)OC3=O)cc2F)CC1 (centres unmarked) | > 50 µM | > 50 µM | > 30 µM | 38.2 µM
CC(C)C(=O)ON(C[C@H]1CN(c2ccc(N3CCOCC3)c(F)c2)C(=O)O1)C(=O)C(C)C | > 50 µM | – | – | –
CC(=O)N1CCN(c2ccc(N3CC(CN(O)C(=O)C4CC4)OC3=O)cc2F)CC1 (centres unmarked) | 23.3 µM | > 50 µM | 7.8 µM | 22.5 µM
